Earlier results on 1 substance are cited in article PMC5636616, “Studies on the Interaction of the Histone Demethylase KDM5B with Tricarboxylic Acid Cycle Intermediates” (Journal of Molecular Biology, 2017).

The target of the data set is T1, KDM5B (Homo sapiens, UniProt Q9UGL1).
T1 construct: purified recombinant KDM5B (produced in Sf9 insect cells, M1-R822); made in house; host or cells: Sf9 insect cells
T1 sequence (Q9UGL1 1-822): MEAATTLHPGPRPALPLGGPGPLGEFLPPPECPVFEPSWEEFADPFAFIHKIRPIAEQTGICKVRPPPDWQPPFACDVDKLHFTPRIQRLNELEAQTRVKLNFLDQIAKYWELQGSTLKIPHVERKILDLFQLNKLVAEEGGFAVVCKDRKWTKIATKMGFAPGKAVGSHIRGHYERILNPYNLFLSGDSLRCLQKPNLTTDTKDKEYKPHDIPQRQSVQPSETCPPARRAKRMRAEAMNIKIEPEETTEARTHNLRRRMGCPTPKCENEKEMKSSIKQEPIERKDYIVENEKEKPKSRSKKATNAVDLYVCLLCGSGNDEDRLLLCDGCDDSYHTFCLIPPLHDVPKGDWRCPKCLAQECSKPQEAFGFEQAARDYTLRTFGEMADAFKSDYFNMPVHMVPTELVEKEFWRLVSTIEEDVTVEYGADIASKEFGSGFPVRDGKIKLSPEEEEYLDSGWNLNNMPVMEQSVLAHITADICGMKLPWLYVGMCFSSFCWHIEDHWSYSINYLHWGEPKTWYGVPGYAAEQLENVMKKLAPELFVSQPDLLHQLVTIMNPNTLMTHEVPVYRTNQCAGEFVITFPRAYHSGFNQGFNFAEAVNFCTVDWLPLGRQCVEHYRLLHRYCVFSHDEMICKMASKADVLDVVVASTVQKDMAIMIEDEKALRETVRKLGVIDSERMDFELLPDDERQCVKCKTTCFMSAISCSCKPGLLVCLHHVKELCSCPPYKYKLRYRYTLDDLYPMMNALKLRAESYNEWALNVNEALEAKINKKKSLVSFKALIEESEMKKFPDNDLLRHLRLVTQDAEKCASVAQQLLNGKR
The following applies: FDH-coupled assay, truncated KDM5B; read-out: Km^app(H3K4me2(1–15)); cited from earlier work.

In general, Km refers to the substrate concentration at which the rate is half of its maximum. In the case of “H3K4me2(1–15): 15-mer histone H3 peptide fragment dimethylated at lysine-4, KDM5B substrate”, the Km is 3.6 µM.
